Test results reported in PMC6720901, “Psoromic Acid, a Lichen-Derived Molecule, Inhibits the Replication of HSV-1 and HSV-2, and Inactivates HSV-1 DNA Polymerase: Shedding Light on Antiherpetic Properties” (Molecules, 2019).
Values joined by “and” are separate entries in the source; they are usually repeats but may differ in a detail not shown here. Identical values can stand only once.

Columns and labels:
[1] = test system: HSV-2 (Strain-A234) clinical isolate; details: selectivity index, Vero CC50 / HSV-2 EC50
[2] = test system: HSV-2 (Strain-A234) clinical isolate; assay: microbe, parasite or virus in culture; details: Human alphaherpesvirus 2, Vero, 48 h

COc1cc(C(=O)O)c2c(c1C)OC(=O)c1c(C)cc(O)c(C=O)c1O2 [PA, Psoromic acid]
SI (CC50/EC50) [1]: 114.8 and >114.8 | EC50 [2]: 2700 ± 430 nM
